Experimental data as given in PMC10149103 (Journal of medicinal chemistry, 2022).

Key:
[1] = test system: morphine-pelleted mice; assay: Opioid withdrawal study in morphine-pelleted mice; assay type: in vivo, mouse; conditions: s.c.; for paw tremoring: 25 at 5 mg/kg, 31 all doses
[2] = in vivo; conditions: Swiss Webster, mouse, sc, 10 mg/kg

## Cl.O=C(N[C@H]1CC[C@@]2(O)[C@H]3Cc4ccc(O)c5c4[C@@]2(CCN3CC2CC2)[C@H]1O5)c1ccsc1 [Compound 31, 17-Cyclopropylmethyl-3,14β-dihydroxy-4,5α-epoxy-6α-(3′thienylcarboxamido)morphinan Hydrochloride]
[1]
  dose at which wet dog shakes and jumps started to show: 5 mg/kg
  paw tremoring: remained mild through all doses

## Cl.O=C(N[C@@H]1CC[C@@]2(O)[C@H]3Cc4ccc(O)c5c4[C@@]2(CCN3CC2CC2)[C@H]1O5)c1cccs1 [Compound 26, 17-Cyclopropylmethyl-3,14β-dihydroxy-4,5α-epoxy-6β-(2′thienylcarboxamido)morphinan Hydrochloride]
[1]; dose as high as 10 times that of NLX
  precipitation of withdrawal symptoms at high dose: did not precipitate significant withdrawal symptoms

## Cl.O=C(N[C@H]1CC[C@@]2(O)[C@H]3Cc4ccc(O)c5c4[C@@]2(CCN3CC2CC2)[C@H]1O5)c1cccs1 [Compound 25, 17-Cyclopropylmethyl-3, 14β-dihydroxy-4,5α-epoxy-6α-(2′-thienylcarboxamido)morphinan Hydrochloride]
[2]
  concentration at 5 min: 4130 ng/mL
[1]
  dose at which wet dog shakes and jumps started to show: 5 mg/kg
  paw tremoring: noteworthy
